From ChEMBL document CHEMBL1151959, “Identification and biological evaluation of a series of 1H-benzo[de]isoquinoline-1,3(2H)-diones as hepatitis C virus NS5B polymerase inhibitors” (J Med Chem, 2009)

Columns and labels:
[1] = Inhibition of HCV1b BK NS5B Cdelta21 RNA dependent RNA polymerase; parameters: species or system Hepatitis C virus (isolate BK)
Summary of the method: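 Truncated ΔC21 NS5B RdRp from the HCV genotype 1b BK strain or the genotype 2b 2b.2 strain. Values are the mean of two or more experiments, with SD within 30% of the mean.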

Hepatitis C virus = assay: Antiviral activity against HCV1b Con1 infected in human Huh7 clone HBI10A cells expressing HEPREP 1b replicon by cell-ELISA assay; type: functional, organism-based, Hepacivirus hominis; settings: isolate Con1, Huh-7

O=C1c2cccc3c(NCCO)ccc(c23)C(=O)N1c1cccc(Br)c1
IC50 [1]: 0.02 µM
EC50 (Hepatitis C virus): 7.1 µM
